This note sets out measurements from patent publication US9024071B2, “Therapeutic compounds” (University of Florida Research Foundation, Inc., priority 2009, dated 2015).

By UniProt entry, the sequences of proteins in these tests, tags left out. Residues count along the entry.
UniProt P28335, 33-458: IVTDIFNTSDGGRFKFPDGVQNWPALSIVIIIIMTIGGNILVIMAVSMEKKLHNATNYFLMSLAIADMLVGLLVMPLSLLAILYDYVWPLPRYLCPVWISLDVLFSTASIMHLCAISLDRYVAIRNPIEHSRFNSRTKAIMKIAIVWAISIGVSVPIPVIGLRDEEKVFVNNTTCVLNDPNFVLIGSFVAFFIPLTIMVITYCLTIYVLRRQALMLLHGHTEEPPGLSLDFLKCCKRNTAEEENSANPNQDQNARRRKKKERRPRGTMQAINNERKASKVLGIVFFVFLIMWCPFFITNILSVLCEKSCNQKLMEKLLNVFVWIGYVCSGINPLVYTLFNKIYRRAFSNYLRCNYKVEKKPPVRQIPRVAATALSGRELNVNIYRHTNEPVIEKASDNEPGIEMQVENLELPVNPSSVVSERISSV

The target of this assay is 5HT2C (Homo sapiens, UniProt P28335). Put plainly: Radioreceptor competition/saturation binding, 5HT2C ([3H]-mesulergine). Conditions: radioligand saturation binding, membranes from transfected CHO cells. How it is done: Cells are grown at 37° C. in a humidified incubator with 5% CO2. The cDNAs encoding the human 5-HT2A, 5-HT2B, and 5-HT2C receptors (wild type) are purchased from UMR (Rolla, Mo.) for transient transfection of the clonal cells. For radioreceptor binding assays, 5-HT2A, 5-HT2B, and 5-HT2C receptor membranes are prepared from transfected CHO-K1 cells. For functional assays measuring activity of PLC/IP formation, transfected CHO-K1 cells are used for 5-HT2A and 5-HT2C receptors. […] Twenty-four hours before transfection, cells are seeded at 40% confluence in 100 mm dishes for radioreceptor binding assays or at 10^5 cells per well in 12-well plates for functional assays. […]
Radioreceptor saturation and competition binding assays are performed using membrane homogenates, similar to our methods reported previously for the phylogenetically closely related histamine H1 GPCR (Booth, 2002; Moniri et al., 2004). […] Protein concentration is determined by the method of Lowry et al. (Lowry, 1951). […] The membrane-bound [^3H]-radioligand retained on the filter discs is quantified by liquid scintillation spectrometry. Data are analyzed by nonlinear regression using the sigmoidal curve-fitting algorithms in Prism 4.03 (GraphPad Software Inc., San Diego, Calif.). […]

SMILES strings stand for the structures.

A word on the Kd: it is the concentration at which binding is half-saturated. Read a low Kd as higher affinity. Compound `CN1CC(NS(=O)(=O)N(C)C)C[C@@H]2c3cccc4c3c(cn4C)C[C@H]21` (stereo partly shown) [[^3H]-mesulergine, [N^6-methyl-^3H]-mesulergine, reference compound] had a Kd of 0.88 ± 0.03 nM.
